Columns and labels:
[1] = molecular target: Histone deacetylase 3 (Homo sapiens, UniProt O15379)
[2] = molecular target: T1, Histone deacetylase 6 (Homo sapiens, UniProt Q9UBN7)
T1 sequence (Q9UBN7 whole entry): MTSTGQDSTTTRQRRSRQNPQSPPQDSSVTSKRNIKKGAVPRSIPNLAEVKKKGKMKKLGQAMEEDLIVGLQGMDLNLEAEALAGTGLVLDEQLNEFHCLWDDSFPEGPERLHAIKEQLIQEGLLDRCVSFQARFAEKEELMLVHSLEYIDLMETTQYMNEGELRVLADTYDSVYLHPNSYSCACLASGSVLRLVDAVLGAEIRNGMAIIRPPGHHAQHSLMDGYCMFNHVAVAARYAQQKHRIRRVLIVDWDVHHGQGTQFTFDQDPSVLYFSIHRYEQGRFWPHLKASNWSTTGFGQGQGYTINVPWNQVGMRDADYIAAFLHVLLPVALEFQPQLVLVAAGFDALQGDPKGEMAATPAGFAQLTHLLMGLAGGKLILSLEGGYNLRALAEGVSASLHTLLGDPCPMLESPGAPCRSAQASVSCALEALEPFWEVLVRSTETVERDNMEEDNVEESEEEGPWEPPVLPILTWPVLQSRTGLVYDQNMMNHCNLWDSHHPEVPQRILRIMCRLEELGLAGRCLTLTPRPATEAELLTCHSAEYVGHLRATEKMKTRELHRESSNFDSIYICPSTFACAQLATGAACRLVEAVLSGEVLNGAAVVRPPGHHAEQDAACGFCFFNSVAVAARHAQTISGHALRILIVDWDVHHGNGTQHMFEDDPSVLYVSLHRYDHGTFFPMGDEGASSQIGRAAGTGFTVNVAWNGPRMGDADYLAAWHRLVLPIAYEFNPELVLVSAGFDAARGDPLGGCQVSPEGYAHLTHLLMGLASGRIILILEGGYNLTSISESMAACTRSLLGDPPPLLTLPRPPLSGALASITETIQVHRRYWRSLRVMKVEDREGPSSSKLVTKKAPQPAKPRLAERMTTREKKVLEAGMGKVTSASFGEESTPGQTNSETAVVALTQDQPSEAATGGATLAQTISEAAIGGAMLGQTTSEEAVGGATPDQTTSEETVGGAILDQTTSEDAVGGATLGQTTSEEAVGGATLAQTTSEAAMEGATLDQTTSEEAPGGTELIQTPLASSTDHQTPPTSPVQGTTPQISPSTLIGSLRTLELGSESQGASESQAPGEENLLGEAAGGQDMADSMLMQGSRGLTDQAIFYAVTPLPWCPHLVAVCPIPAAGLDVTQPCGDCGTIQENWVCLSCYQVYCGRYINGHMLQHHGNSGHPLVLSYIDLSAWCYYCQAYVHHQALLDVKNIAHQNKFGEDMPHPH

The chains behind the UniProt entries cited, without tags or fusion partners. Where a name states a change or a piece, a line headed by the entry shows the natural chain unless it says otherwise.
UniProt O15379: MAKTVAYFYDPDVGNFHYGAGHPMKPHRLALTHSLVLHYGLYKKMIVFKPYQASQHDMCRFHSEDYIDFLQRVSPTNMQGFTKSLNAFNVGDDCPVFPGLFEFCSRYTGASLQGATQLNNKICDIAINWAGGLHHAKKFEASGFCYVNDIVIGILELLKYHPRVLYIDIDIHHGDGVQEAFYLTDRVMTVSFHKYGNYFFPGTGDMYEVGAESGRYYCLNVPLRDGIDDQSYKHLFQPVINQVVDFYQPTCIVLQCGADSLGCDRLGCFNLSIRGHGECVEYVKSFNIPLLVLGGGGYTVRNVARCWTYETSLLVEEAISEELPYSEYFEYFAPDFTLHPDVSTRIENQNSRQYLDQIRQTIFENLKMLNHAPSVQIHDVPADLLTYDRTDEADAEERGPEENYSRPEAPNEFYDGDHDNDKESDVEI

Structure (SMILES) | IC50 [1] [nM] | IC50 [2] [nM]
N[C@@H](CCCCCC(=O)C1COC=N1)C1NC=C(c2ccccc2F)N1 (stereo partly drawn) [US12331044, Example 36] | 150 | 
N[C@@H](CCCCCC(=O)c1ccon1)C1NC=C(c2ccccc2F)N1 (stereo partly drawn) [US12331044, Example 37] | 1.18 | 45000
